# Literature values as cited in patent US5422118A, “Transdermal administration of amines with minimal irritation and high transdermal flux rate” (priority 1992, dated 1995).
# Details: Table 2; cited from earlier work
structure (smiles),measurement,value
CN(C)CCC(c1ccc(Cl)cc1)c1ccccn1 (stereo not shown) [chlorpheniramine],effective blood concentration,10.6 ng/mL
